Series [1] deals with Delta-type opioid receptor (Homo sapiens, UniProt P41143).
Series [2] concerns Liver microsomes. Particulars: human.
Series [3] concerns the target Kappa-type opioid receptor (Homo sapiens, UniProt P41145).

Protein sequences, listed by entry. Tags and fused reporters are not part of them. Lines headed by an entry give the natural chain unless they say otherwise; changes in a name come on top.
UniProt P41143, whole entry: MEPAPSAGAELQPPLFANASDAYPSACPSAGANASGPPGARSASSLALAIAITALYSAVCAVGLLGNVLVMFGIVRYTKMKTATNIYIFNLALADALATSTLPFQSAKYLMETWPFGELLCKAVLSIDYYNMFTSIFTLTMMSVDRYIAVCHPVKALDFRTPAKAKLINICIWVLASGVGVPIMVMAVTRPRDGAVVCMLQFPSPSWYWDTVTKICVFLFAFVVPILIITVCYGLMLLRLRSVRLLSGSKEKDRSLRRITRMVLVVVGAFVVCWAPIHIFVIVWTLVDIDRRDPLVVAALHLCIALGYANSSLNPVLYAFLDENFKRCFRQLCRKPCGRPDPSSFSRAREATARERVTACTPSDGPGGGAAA
UniProt P41145: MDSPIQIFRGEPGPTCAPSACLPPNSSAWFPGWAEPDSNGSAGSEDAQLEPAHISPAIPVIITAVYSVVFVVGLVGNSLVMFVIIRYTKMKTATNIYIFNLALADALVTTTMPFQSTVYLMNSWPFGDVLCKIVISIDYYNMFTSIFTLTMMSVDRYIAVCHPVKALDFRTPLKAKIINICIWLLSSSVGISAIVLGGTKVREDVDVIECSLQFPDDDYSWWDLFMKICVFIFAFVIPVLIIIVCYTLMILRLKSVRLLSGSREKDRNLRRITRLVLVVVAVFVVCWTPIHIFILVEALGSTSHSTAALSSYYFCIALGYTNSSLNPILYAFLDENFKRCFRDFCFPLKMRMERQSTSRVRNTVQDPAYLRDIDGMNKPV

Some results are limits rather than exact numbers.

The term EC50 denotes the concentration that produces a half-maximal response. Low values mean greater potency, high ones weaker potency.

In series [1], `O=C(N[C@@H]1CC[C@@]2(O)[C@H]3Cc4ccc(O)c5c4[C@@]2(CCN3CC2CC2)[C@H]1O5)c1ccc(Cl)cc1` returned an EC50 above 10 µM.

Consider `O=C(N[C@@H]1CC[C@@]2(O)[C@H]3Cc4ccc(O)c5c4[C@@]2(CCN3CC2CC2)[C@H]1O5)c1ccc(Cl)c(Cl)c1.O=C(O)C(=O)O`, for which the t1/2 in series [2] came out at 5.02 h.

With `O=C(N[C@@H]1CC[C@@]2(O)[C@H]3Cc4ccc(O)c5c4[C@@]2(CCN3CC2CC2)[C@H]1O5)c1ccc(Br)cc1.O=C(O)C(=O)O`, the EC50 was 0.066 µM in series [1] and above 10 µM in series [3].

For the origin of these results see ChEMBL document CHEMBL1152554, “Synthesis and pharmacological evaluation of 6-naltrexamine analogs for alcohol cessation” (Bioorg Med Chem, 2009).
